This passage reports IC50 results from patent publication USRE47193E1, “Selectively substituted quinoline compounds” (EISAI R&D MANAGEMENT CO., LTD., priority 2013, dated 2019).

Amino acid sequences for entries named in this document (tags omitted). Residues count along the entry.
UniProt Q9NR97, 27-1041 limits assumed: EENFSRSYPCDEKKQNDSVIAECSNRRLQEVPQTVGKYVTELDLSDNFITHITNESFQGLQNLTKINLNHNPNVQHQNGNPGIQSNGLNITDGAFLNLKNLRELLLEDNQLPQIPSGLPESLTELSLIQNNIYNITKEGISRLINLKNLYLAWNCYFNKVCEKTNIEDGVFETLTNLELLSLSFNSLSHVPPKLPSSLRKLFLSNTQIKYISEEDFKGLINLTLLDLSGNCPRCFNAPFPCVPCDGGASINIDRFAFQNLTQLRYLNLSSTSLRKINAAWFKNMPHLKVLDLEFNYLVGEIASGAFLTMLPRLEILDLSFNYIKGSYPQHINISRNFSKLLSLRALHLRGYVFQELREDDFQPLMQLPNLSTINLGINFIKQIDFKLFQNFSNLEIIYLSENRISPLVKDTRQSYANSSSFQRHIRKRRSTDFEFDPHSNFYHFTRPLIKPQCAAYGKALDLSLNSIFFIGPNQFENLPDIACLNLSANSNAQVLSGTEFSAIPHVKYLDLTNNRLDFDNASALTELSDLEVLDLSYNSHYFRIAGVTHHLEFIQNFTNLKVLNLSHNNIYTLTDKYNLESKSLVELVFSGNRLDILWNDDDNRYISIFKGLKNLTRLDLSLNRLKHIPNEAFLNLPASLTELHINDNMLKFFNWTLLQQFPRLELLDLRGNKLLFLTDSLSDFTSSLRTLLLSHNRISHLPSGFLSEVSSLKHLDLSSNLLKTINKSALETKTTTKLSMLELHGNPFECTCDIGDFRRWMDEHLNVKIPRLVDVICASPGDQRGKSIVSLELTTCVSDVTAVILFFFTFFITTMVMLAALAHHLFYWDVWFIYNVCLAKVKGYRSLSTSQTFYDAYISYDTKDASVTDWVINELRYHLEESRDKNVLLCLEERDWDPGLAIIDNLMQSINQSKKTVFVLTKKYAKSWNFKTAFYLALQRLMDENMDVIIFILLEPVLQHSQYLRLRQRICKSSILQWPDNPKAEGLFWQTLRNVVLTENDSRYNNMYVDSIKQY

The subject of one assay is Human TLR7/8. In words: Human PBMC cell-based assay, TLR7/8 stimulus (RNA-Ig), cytokine ELISA. Particulars: read-out: Human PBMCs IC50; primary human PBMC assay, TLR7/8 potency; ligand not given. Here is the method: Human PBMC Cell-Based Assay. Human peripheral blood mononuclear cells (PBMC) were isolated from freshly-drawn heparinized (10 USP units/ml, Hospira, Lakeforest, Ill.) healthy donor whole blood by density gradient (Histopaque® 1077, Sigma, Inc., St. Louis, Mo.). Briefly, 25 ml blood was diluted with 15 ml PBS (without Ca^2+, Mg^2+) in a 50 ml conical tube, and 12 ml Histopaque was underlaid using a spinal needle. Tubes were centrifuged for 45 minutes at 1200 rpm (350×g), and PBMC were collected from the buffy coat. Cells were then washed twice in PBS, and red blood cells were lysed by suspension in 5 ml ammonium chloride solution (1× Red Blood Cell Lysis Buffer, eBioscience) for 5 minutes at room temperature. […]
Antagonist compounds solubilized and serial diluted in 100% DMSO were added in triplicate to cells to yield a final concentration of 0.1% DMSO (v/v). […] Cell culture supernatants were collected, and levels of various human cytokines were assessed as indicated by standard ELISA procedure according to the manufacturer's recommended protocol (BD Biosciences, Inc., San Diego, Calif.). […]

The next assay deals with human TLR8 (Homo sapiens, UniProt Q9NR97). In words: HEK-293 human TLR8 NF-kappaB luciferase reporter assay (CL097). Format: cell-based. Particulars: read-out: HEK/hTLR8 IC50; HEK-293 assay format. Here is the method: The comparative potency of ER-899742 versus hydroxychloroquine was further explored using cloned TLR7 and 8 in the HEK 293 cell line as described below in In Vitro Pharmacology. Effects on mouse TLR7 were also compared. Cells were stimulated overnight with TLR7/8 agonist CL097 at pre-determined ED70-80: 3 ug/ml for HEK-hTLR7, 1.5 ug/ml for HEK-mTLR7 and 12 ug/ml for HEK-hTLR8, before reading luminescence intensity. Three tests were performed and IC50 value was determined using Graphpad Prism 6 nonlinear regression curve fit.
HEK-293 cells (ATCC) were engineered to stably express a NF-kappaB transcription factor inducible E-selectin (ELAM-1) luciferase reporter derived from the plasmid pGL3 (Promega) containing base pairs −2241 bp to −254 bp from the promoter of the human E-selectin gene (Accession No. NM_000450). These cells were then subsequently engineered to stably and individually express human TLR4, TLR7 or TLR9 full-length ORF cDNAs. Human TLR4 cDNA (Accession No. NM_138554) was cloned into pcDNA 3.0 expression vector (Invitrogen). TLR4 transfected cells were also engineered to express human MD-2 co-receptor [MD-2 cDNA (Accession No. NM_015364) was cloned into the pEF-BOS vector] and were supplemented with 10 nM soluble CD14 (R&D Systems) in the media to optimize LPS responsiveness. Human TLR9 cDNA (Accession No. NM_017442) was cloned into the pBluescript II KS vector (Agilent). […]
On the technique in general: A reporter such as luciferase makes a cellular process visible.

With `CCC1CN(c2ccc(C#N)c3ncccc23)CCO1` (stereo not shown), the IC50 turned out to be 169 nM in the assay with Human TLR7/8 and 50 nM at human TLR8.

As for `C[C@@H]1CN(c2ccc(C#N)c3ncccc23)C[C@H](CNc2ccncc2)O1`, the IC50 was 5 nM with Human TLR7/8 and 8 nM at human TLR8.
